Sequences of proteins named here, by UniProt entry; tags and fusion partners are left off.
UniProt P35372, whole entry: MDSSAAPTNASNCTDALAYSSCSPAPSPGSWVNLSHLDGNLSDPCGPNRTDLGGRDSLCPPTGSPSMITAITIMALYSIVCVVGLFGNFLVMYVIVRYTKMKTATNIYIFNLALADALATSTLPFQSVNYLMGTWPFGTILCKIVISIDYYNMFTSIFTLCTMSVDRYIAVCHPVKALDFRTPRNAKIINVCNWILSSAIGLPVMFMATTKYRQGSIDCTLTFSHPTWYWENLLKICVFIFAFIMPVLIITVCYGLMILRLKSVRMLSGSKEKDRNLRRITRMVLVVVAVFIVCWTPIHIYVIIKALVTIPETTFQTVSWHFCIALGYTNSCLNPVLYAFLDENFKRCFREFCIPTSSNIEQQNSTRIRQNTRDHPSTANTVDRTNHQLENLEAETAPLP

According to publication PMC5253357, “Racemic Salsolinol and its Enantiomers Act as Agonists of the μ-Opioid Receptor by Activating the Gi Protein-Adenylate Cyclase Pathway” (Frontiers in Behavioral Neuroscience, 2017):

Target: T1, human μ-opioid receptor (Homo sapiens, UniProt P35372)
T1 construct: host or cells: CHO-K1
Assay: cell-based
Source text: To assess the activation of the μ-opioid receptor through the recruitment of the β-arrestin signaling pathway, we used a PathHunter® eXpress β-Arrestin GPCR chemiluminescent assay (DiscoverX) following the manufacturer instructions. In this system, the human μ-opioid receptor is fused to a small fragment of β-galactosidase (PK) and co-expressed in cells expressing a fusion protein of β-arrestin and the complementary fragment of β-galactosidase (EA). Activation of the μ-opioid receptor stimulates binding of β-arrestin to the PK-tagged receptor allowing the complementation of the two enzyme fragments of β-galactosidase. This action leads to an activation of the enzyme that can be measured using a chemiluminescent reagent resulting in luminescence, which is proportional to the recruitment of β-arrestin. […] The resulting luminescence was determined with a microplate reader Synergy HT (Biotek).
The fitting of the data to the correlation was assessed by its corresponding coefficient of determination (R^2), using GraphPad Prism (San Diego, CA, USA).

Compound: CC(C)C[C@@H](NC(=O)[C@H](Cc1ccccc1)NC(=O)CNC(=O)[C@@H](C)NC(=O)[C@@H](N)Cc1ccc(O)cc1)C(=O)O [DADLE, [D-Ala^2, D-Leu^5]-Enkephalin, reference compound]
- EC50: 1000 nM
